# Data published in patent publication US20240360179A1, “STAPLED PEPTIDES AND METHODS THEREOF” (FOG PHARMACEUTICALS, INC., priority 2021, published 2024).
# Chains of the proteins cited; added tags and fusions are not shown.
# UniProt P35222, whole entry: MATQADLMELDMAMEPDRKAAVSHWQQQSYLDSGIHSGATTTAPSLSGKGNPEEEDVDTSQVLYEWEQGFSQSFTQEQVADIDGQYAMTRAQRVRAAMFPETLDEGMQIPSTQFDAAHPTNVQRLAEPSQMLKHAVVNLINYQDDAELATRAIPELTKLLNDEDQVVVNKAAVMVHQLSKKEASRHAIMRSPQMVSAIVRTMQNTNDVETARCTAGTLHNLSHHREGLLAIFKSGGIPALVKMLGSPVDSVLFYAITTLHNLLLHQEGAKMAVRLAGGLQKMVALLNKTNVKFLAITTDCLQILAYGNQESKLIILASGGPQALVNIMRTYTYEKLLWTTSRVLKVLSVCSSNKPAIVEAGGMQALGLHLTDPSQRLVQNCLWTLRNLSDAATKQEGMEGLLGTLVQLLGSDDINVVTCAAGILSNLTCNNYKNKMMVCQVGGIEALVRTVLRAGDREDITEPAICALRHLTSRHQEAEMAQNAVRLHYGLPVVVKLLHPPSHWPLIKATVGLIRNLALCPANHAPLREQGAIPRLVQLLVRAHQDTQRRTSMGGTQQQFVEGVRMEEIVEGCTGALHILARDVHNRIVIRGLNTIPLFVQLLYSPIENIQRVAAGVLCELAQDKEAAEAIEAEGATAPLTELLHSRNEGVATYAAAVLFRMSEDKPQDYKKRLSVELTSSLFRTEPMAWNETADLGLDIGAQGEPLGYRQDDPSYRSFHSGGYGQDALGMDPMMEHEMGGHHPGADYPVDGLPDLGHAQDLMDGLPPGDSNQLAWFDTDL
# Target: T1, full-length B-Catenin (Uniprot ID P35222) (Homo sapiens, UniProt P35222)
# T1 construct: 10 nM full-length B-Catenin (Uniprot ID P35222)
# Type: binding
# Settings: competition fluorescence polarization; read-out: beta-Catenin FP IC50
row,Substance,IC50 [nM]
1,1Imidac-PL3-Asp-Npg-B5-Asp-3COOHF-Aib-Ala-Phe-Lys*3-PyrS2-3Thi-BztA-GlnR*3-Ala-NH2 [I-1062],< 50
2,1PydoneAc-PL3-Asp-Npg-B5-Asp-3COOHF-Aib-Ala-Phe-Lys*3-PyrS2-3Thi-BztA-GlnR*3-Ala-NH2 [I-1074],< 50
3,1Pyrazole Ac-PL3-Asp-Npg-B5-Asp-3COOHF-Aib-Ala-Phe-Lys*3-PyrS2-3Thi-BztA-GlnR*3-Ala-NH2 [I-1069],< 50
4,2F2PyAc-PL3-Asp-Npg-B5-Asp-3COOHF-Aib-Ala-Phe-Lys*3-PyrS2-3Thi-BztA-GlnR*3-Ala-NH2 [I-1063],< 50
5,2IAPAc-PL3-Asp-Npg-B5-Asp-3COOHF-Aib-Ala-Phe-Lys*3-PyrS2-3Thi-BztA-GlnR*3-Ala-NH2 [I-1064],< 50
6,2PyBu-PL3-Asp-DipA-B5-Asp-3COOHF-CyLeu-Ala-Phe-Lys*3-PyrS2-3Thi-34ClF-GlnR*3-NH2 [I-1721],< 50
7,2PyBu-PL3-Glu-Npg-B5-Glu-3COOHF-Aib-Ala-Phe-Lys*3-PyrS2-3Thi-BztA-GlnR*3-Ala-NH2 [I-1025],> 1000
8,2PyCypCO-PL3-Asp-DipA-B5-Asp-3COOHF-CyLeu-Ala-Phe-Lys*3-PyrS2-3Thi-34ClF-GlnR*3-NH2 [I-1720],< 50
9,2PyzCO-PL3-Asn-DipA-B5-Asp-3COOHF-CyLeu-Ala-Phe-Lys*3-PyrS2-3Thi-34ClF-GlnR*3-NH2 [I-1734],< 50
10,2PyzCO-PL3-Asp-DipA-B5-Asp-3COOHF-CyLeu-Ala-Phe-Lys*3-PyrS2-3Thi-34ClF-GlnR*3-NH2 [I-1722],< 50
11,3PyPrpc-PL3-Asp-Npg-B5-Asp-3COOHF-Aib-Ala-Phe-Lys*3-PyrS2-3Thi-BztA-GlnR*3-Ala-NH2 [I-1072],< 50
12,3PydCO-PL3-Asp-Npg-B5-Asp-3COOHF-Aib-Ala-Phe-Lys*3-PyrS2-3Thi-BztA-GlnR*3-Ala-NH2 [I-907],< 50
13,4PymCO-PL3-Asp-Npg-B5-Asp-3COOHF-Aib-Ala-Phe-Lys*3-PyrS2-3Thi-BztA-GlnR*3-Ala-NH2 [I-911],< 50
14,4THPCO-PL3-Asp-Ile-B5-Asp-3COOHF-Aib-Ala-Phe-Lys*3-PyrS2-3Thi-34ClF-GlnR*3-NH2 [I-1592],< 50
15,4THPCO-PL3-Asp-Npg-B5-Asp-3COOHF-Aib-Ala-Phe-Lys*3-PyrS2-Phe-34ClF-GlnR*3-NH2 [I-1570],< 50
16,5PymAc-PL3-Asp-DipA-B5-Asp-3COOHF-CyLeu-Ala-Phe-Lys*3-PyrS2-3Thi-34ClF-GlnR*3-NH2 [I-1719],< 50
17,5PymAc-PL3-Asp-Npg-B5-Asp-3COOHF-Aib-Ala-Phe-Lys*3-PyrS2-3Thi-BztA-GlnR*3-Ala-NH2 [I-1073],< 50
18,5PymCO-PL3-Asp-Npg-B5-Asp-3COOHF-Aib-Ala-Phe-Lys*3-PyrS2-3Thi-BztA-GlnR*3-Ala-NH2 [I-910],< 50
19,5hexenyl-MePro-Asp-B5-Ala-Asp-3COOHF-Ala-Ala-Phe-PyrS2-Lys*3-3Thi-BztA-Ala-GlnR*3-NH2 [I-992],> 1000
20,5hexenyl-MePro-Asp-S3-R5-Asp-3COOHF-Aib-Ala-Phe-Lys*3-PyrS2-3Thi-BztA-GlnR*3-Ala-NH2 [I-1022],50 to 200
21,6QuiAc-PL3-Asp-Npg-B5-Asp-3COOHF-Aib-Ala-Phe-Lys*3-PyrS2-3Thi-BztA-GlnR*3-Ala-NH2 [I-1066],< 50
22,8IAP-PL3-Asp-Npg-B5-Asp-3COOHF-Aib-Ala-Phe-Lys*3-PyrS2-3Thi-BztA-GlnR*3-Ala-NH2 [I-906],< 50

row,Substance,IC50 [nM]
1,8QuiSO2-PL3-Asp-Npg-B5-Asp-3COOHF-Aib-Ala-Phe-Lys*3-PyrS2-3Thi-BztA-GlnR*3-Ala-NH2 [I-1085],< 50
2,123TriAc-PL3-Asp-Npg-B5-Asp-3COOHF-Aib-Ala-Phe-Lys*3-PyrS2-3Thi-BztA-GlnR*3-Ala-NH2 [I-1068],< 50
3,124TriAc-PL3-Asn-DipA-B5-Asp-3COOHF-CyLeu-Ala-Phe-Lys*3-PyrS2-3Thi-34ClF-GlnR*3-NH2 [I-1731],< 50
4,124TriAc-PL3-Asp-DipA-B5-Asp-3COOHF-CyLeu-Ala-Phe-Lys*3-PyrS2-3Thi-34ClF-GlnR*3-NH2 [I-1718],< 50
5,124TriAc-PL3-Asp-Npg-B5-Asp-3COOHF-Aib-Ala-Phe-Lys*3-PyrS2-3Thi-BztA-GlnR*3-Ala-NH2 [I-1075],< 50
6,124TriPr-PL3-Asp-Npg-B5-Asp-3COOHF-Aib-Ala-Phe-Lys*3-PyrS2-3Thi-BztA-GlnR*3-Ala-NH2 [I-1065],< 50
7,Ac-Ala-Ala-S5-Ser-Asp-Npg-B5-Asp-3COOHF-Aib-Ala-Phe-Lys*3-PyrS2-3Thi-BztA-GlnR*3-Ala [I-1287],50 to 200
8,Ac-Ala-Ser-S5-Ala-Asp-Npg-B5-Asp-3COOHF-Aib-Ala-Phe-Lys*3-PyrS2-3Thi-BztA-GlnR*3-Ala [I-1293],50 to 200
9,Ac-Asp-Ala-S5-Ala-Asp-Npg-B5-Asp-3COOHF-Aib-Ala-Phe-Lys*3-PyrS2-3Thi-BztA-GlnR*3-Ala [I-1285],< 50
10,Ac-Asp-Ala-S5-Ser-Asp-Npg-B5-Asp-3COOHF-Aib-Ala-Phe-Lys*3-PyrS2-3Thi-BztA-GlnR*3-Ala [I-1288],< 50
11,Ac-Asp-Ser-S5-Ala-Asp-Npg-B5-Asp-3COOHF-Aib-Ala-Phe-Lys*3-PyrS2-3Thi-BztA-GlnR*3-Ala [I-1294],< 50
12,Ac-PL3-3Thi-Npg-B5-Asp-3COOHF-Aib-Ala-Phe-Lys*3-PyrS2-3Thi-BztA-GlnR*3-Ala-NH2 [I-931],> 1000
13,Ac-PL3-Aad-Npg-B5-Asp-3COOHF-Aib-Ala-Phe-Lys*3-PyrS2-3Thi-BztA-GlnR*3-Ala-NH2 [I-546],200 to 750
14,Ac-PL3-Asn-DipA-B5-Asp-3COOHF-CyLeu-Ala-Phe-Lys*3-PyrS2-3Thi-34ClF-GlnR*3-NH2 [I-1630],< 50
15,Ac-PL3-Asn-DipA-B5-Asp-3COOHF-nLeu-Ala-Phe-Lys*3-PyrS2-3Thi-34ClF-GlnR*3-NH2 [I-1636],< 50
16,Ac-PL3-Asn-DipA-B5-Asp-3COOHF-nLeu-Ala-Phe-Lys*3-PyrS2-3Thi-BztA-GlnR*3-NH2 [I-1680],< 50
17,Ac-PL3-Asp-Cba-B5-Asp-3COOHF-CyhLeu-Ala-Phe-Lys*3-PyrS2-3Thi-BztA-GlnR*3-Ala-NH2 [I-854],< 50
18,Ac-PL3-Asp-Cha-B5-Asp-3COOHF-Aib-Ala-Phe-Lys*3-PyrS2-2ClF-34ClF-GlnR*3-NH2 [I-1502],< 50
19,Ac-PL3-Asp-Cha-B5-Asp-3COOHF-Aib-Ala-Phe-Lys*3-PyrS2-2ClF-BztA-GlnR*3-Ala-NH2 [I-1643],< 50
20,Ac-PL3-Asp-Cha-B5-Asp-3COOHF-Aib-Ala-Phe-Lys*3-PyrS2-2ClF-BztA-GlnR*3-Leu-NH2 [I-1641],< 50
21,Ac-PL3-Asp-Cha-B5-Asp-3COOHF-Aib-Ala-Phe-Lys*3-PyrS2-2FF-BztA-GlnR*3-Ala-NH2 [I-1652],< 50
22,Ac-PL3-Asp-Cha-B5-Asp-3COOHF-Aib-Ala-Phe-Lys*3-PyrS2-2FF-BztA-GlnR*3-Leu-NH2 [I-1650],< 50

row,Substance,IC50 [nM]
1,Ac-PL3-Asp-Cha-B5-Asp-3COOHF-Aib-Ala-Phe-Lys*3-PyrS2-2FF-BztA-GlnR*3-NH2 [I-1653],< 50
2,Ac-PL3-Asp-Cha-B5-Asp-3COOHF-Aib-Ala-Phe-Lys*3-PyrS2-2MeF-34ClF-GlnR*3-NH2 [I-1515],200 to 750
3,Ac-PL3-Asp-Cha-B5-Asp-3COOHF-Aib-Ala-Phe-Lys*3-PyrS2-Phe-BztA-GlnR*3-Ala-NH2 [I-1647],< 50
4,Ac-PL3-Asp-Cha-B5-Asp-3COOHF-Aib-Ala-Phe-Lys*3-PyrS2-Phe-BztA-GlnR*3-Leu-NH2 [I-1645],< 50
5,Ac-PL3-Asp-Cha-B5-Asp-3COOHF-Aib-Ala-Phe-Lys*3-PyrS2-Phe-BztA-GlnR*3-NH2 [I-1648],< 50
6,Ac-PL3-Asp-Cha-B5-Asp-3COOHF-Ala-Ala-Phe-Lys*3-PyrS2-2ClF-34ClF-GlnR*3-NH2 [I-1503],< 50
7,Ac-PL3-Asp-Cha-B5-Asp-3COOHF-Ala-Ala-Phe-Lys*3-PyrS2-2ClF-BztA-GlnR*3-NH2 [I-1528],< 50
8,Ac-PL3-Asp-Cha-B5-Asp-3COOHF-Ala-Ala-Phe-Lys*3-PyrS2-2F3MeF-BztA-GlnR*3-Leu-NH2 [I-107],< 50
9,Ac-PL3-Asp-Cha-B5-Asp-3COOHF-Ala-Ala-Phe-Lys*3-PyrS2-2MeF-34ClF-GlnR*3-NH2 [I-1516],200 to 750
10,Ac-PL3-Asp-Cha-B5-Asp-3COOHF-CyLeu-Ala-Phe-Lys*3-PyrS2-2ClF-34ClF-GlnR*3-NH2 [I-1504],< 50
11,Ac-PL3-Asp-Cha-B5-Asp-3COOHF-CyLeu-Ala-Phe-Lys*3-PyrS2-2ClF-BztA-GlnR*3-NH2 [I-1529],< 50
12,Ac-PL3-Asp-Cha-B5-Asp-3COOHF-CyLeu-Ala-Phe-Lys*3-PyrS2-3Thi-34ClF-GlnR*3-NH2 [I-1046],< 50
13,Ac-PL3-Asp-Cha-B5-Asp-3COOHF-CyLeu-Ala-Phe-Lys*3-PyrS2-Phe-34ClF-GlnR*3-NH2 [I-1058],< 50
14,Ac-PL3-Asp-Chg-B5-Asp-3COOHF-Aib-Ala-Phe-Lys*3-PyrS2-2ClF-34ClF-GlnR*3-NH2 [I-1505],< 50
15,Ac-PL3-Asp-Chg-B5-Asp-3COOHF-Aib-Ala-Phe-Lys*3-PyrS2-2ClF-BztA-GlnR*3-NH2 [I-1530],< 50
16,Ac-PL3-Asp-Chg-B5-Asp-3COOHF-Aib-Ala-Phe-Lys*3-PyrS2-2MeF-34ClF-GlnR*3-NH2 [I-1517],200 to 750
17,Ac-PL3-Asp-Chg-B5-Asp-3COOHF-Aib-Ala-Phe-Lys*3-PyrS2-3Thi-34ClF-GlnR*3-NH2 [I-1037],< 50
18,Ac-PL3-Asp-Chg-B5-Asp-3COOHF-Aib-Ala-Phe-Lys*3-PyrS2-3Thi-BztA-GlnR*3-Ala-NH2 [I-707],< 50
19,Ac-PL3-Asp-Chg-B5-Asp-3COOHF-Aib-Ala-Phe-Lys*3-PyrS2-Phe-34ClF-GlnR*3-NH2 [I-1048],< 50
20,Ac-PL3-Asp-Chg-B5-Asp-3COOHF-Aib-Thr-Phe-Lys*3-PyrS2-3Thi-BztA-GlnR*3-Ala-NH2 [I-997],< 50
21,Ac-PL3-Asp-Chg-B5-Asp-3COOHF-Ala-Ala-Phe-Lys*3-PyrS2-2ClF-34ClF-GlnR*3-NH2 [I-1506],< 50
